For eleven compounds, outcome results are on record in PubChem BioAssay (EPA / NIEHS).

Some of the results follow. Results filed as inconclusive are left out. Activity calls are given as the source filed them. Rule for the calls: active = hit-call score of the fitted dose curve at least 0.9, where 1 is the maximum; inactive = score below 0.9.

The assay can be described thus: ATG_M_61_TRANS: Attagene TRANS-FACTORIAL HepG2 Assay for M61 Transcription Factor (Internal Marker) (AID 2282988). The note with it: HepG2 Attagene TRANS M61 internal marker reporter. On the procedure: ATG_TRANS is a cell-based, multiplexed-readout assay that uses HepG2, a human liver cell line, with measurements taken at 24 hours after chemical dosing in a 24-well plate.ATG_M_61_TRANS is one of 30 assay component(s) measured or calculated from the ATG_TRANS assay. It is designed to make measurements of mRNA induction, a form of inducible reporter, as detected with fluorescence intensity signals by Reverse transcription polymerase chain reaction (RT-PCR) and Capillary electrophoresis technology.Data from the assay component ATG_M_61_TRANS was analyzed into 1 assay endpoint. This assay endpoint, ATG_M_61_TRANS, was analyzed in the positive analysis fitting direction relative to DMSO as the negative control and baseline of activity. Using a type of inducible reporter, measures of mRNA for gain-of-signal activity can be used to understand the background control at the transcription factor-level as they relate to the gene . Furthermore, this assay endpoint can be referred to as a secondary readout, because this assay has produced multiple assay endpoints where this one serves a background control function. To generalize the intended target to other relatable targets, this assay endpoint is annotated to the background measurement intended target family, where the subfamily is internal marker.
Human liver HepG2 cells are transiently transfected with multiple reporter transcription units (MRTUs) in 6-well plates using FuGene 6 reagent (Roche; 3 ml FuGene/1 mg DNA). The MRTU constructs are regulated by a cis-regulating element (promoter). […] A major difference between the CIS and TRANS system is that in CIS activities of endogenous TFs are measured, whereas the TRANS assay evaluates changes in activities of exogenous, chimeric NR-Gal4 proteins. […] At the end of 24 hour incubation, total RNA was isolated using TriZol reagent (Invitrogen). The isolated RNA is then reverse-transcribed using oligo(dT) primer and Mo-MLV reverse transcriptase (Invitrogen) with DNAse I (Ambion) treatment for 30 min. The one-tenth of the produced cDNA was amplified by PCR using Taq DNA polymerase (Invitrogen) and two reporter sequence-specific primers. The PCR products were fluorescently labeled by primer extension with 6-arboxyfluorescein (6-FAM) 5'-labeled reporter sequence-specific primer (2 min at 95 C, 20 s at 68 C and 10 min at 72 C) and these products were digested with 5U of HpaI (New England Biolabs) for 2h at 37 C. The fragments were purified using Qiaquick PCR columns (Qiagen), analyzed on an ABI 3130xL genetic analyzer (Applied Biosystems) with peak positions identified by using a set of X-rhodamine (ROX)-labeled MapMarker1000 molecular weight standards (BioVentures). The raw capillary electrophoresis data was processed using Attagraph software (Attagene).
Consider `O=C1C2CC=CCC2C(=O)N1SC(Cl)(Cl)C(Cl)Cl` (stereo unspecified), for which the call was inactive. As for `O=[P+](Oc1ccccc1)Oc1ccccc1`, the entry is “inactive”; as for `CCCCO[P+](=O)OCCCC`, “inactive”; as for `O=[As]c1ccccc1` (stereo unspecified), “inactive”. As for `O=[N+]([O-])c1ccc([N+](=O)[O-])cc1`, the entry is “inactive”; as for `O=C(Cl)Oc1ccccc1`, “inactive”; as for `CN(C(=O)Cc1cccc2occc12)[C@H]1CC[C@@]2(CCCO2)C[C@@H]1N1CCCC1`, “inactive”. The result for `O=C(Cl)OCCOC(=O)Cl` reads “inactive”; that for `ClP(Cl)c1ccccc1`, “inactive”. `CCCCC(CC)CO[P+](=O)OCC(CC)CCCC` (stereo unspecified): the result was inactive.

Take `CC(C)CCCCCCCOP(OCCCCCCCC(C)C)Oc1ccccc1`: the call was inactive.
